{"source": "patent US20050101640A1", "about": "(Recordati Ireland Limited, priority 2002, published 2005)", "system": "uninephrectomized anesthetized rats, renal ischemia/reperfusion hypertension", "test": "Model of acute angiotensin-mediated renal hypertension in anesthetized rats (Example I)", "conditions": "time 125 min, 5 min after reperfusion, at drug administration (reference value); mean ± S.E.M.", "data": [{"smiles": "NCCCC[C@H](N[C@@H](CCc1ccccc1)C(=O)O)C(=O)N1CCC[C@H]1C(=O)O", "note": "[lisinopril]", "values": [{"measurement": "HR", "result": "398.3 ± 18.8", "unit": "beats/min"}]}]}
